# Antibody variant affinities, Ab-14 heavy chain, assay 1

The target is the same throughout: PDVDLGDISGINAS, from the HR2 region of SARS-CoV-2 spike.

Parent: Ab-14, a human scFv built as VH, a 15-residue (Gly4Ser)3 linker, VL. Only the CDRs of the heavy chain vary.
VH: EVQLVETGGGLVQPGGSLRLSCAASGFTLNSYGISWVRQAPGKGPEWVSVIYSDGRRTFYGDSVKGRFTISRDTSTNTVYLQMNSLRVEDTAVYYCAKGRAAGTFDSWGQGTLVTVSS
VL: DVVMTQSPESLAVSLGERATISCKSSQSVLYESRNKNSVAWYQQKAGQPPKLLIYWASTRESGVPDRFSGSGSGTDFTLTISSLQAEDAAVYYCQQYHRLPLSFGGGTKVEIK

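The parent was found by panning a naive human phage display library on the peptide. The library (AAYL49) carries one to three amino acid substitutions per variant, with no insertions or deletions. The scFvs were displayed on barcoded MATa yeast, the peptide on MATalpha yeast. After mating in shaken culture at 30 °C for 16 h, diploids were selected and their barcode pairs sequenced. Scores were corrected for input abundance and mapped to Kd with protein pairs of known affinity run in the same pool. The assay was run in three technical replicates.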

Variants are written as CDR1, CDR2 and CDR3 of the heavy chain (limits as in the source). Parent: GFTLNSYGIS, VIYSDGRRTFYGDSVK, GRAAGTFDS. Values are log10 of the apparent Kd in nM; lower means stronger binding. Replicates are averaged; those with no signal do not enter the mean. An entry "no signal" has no value in the source: the pair was not observed among the diploids in any replicate. This suggests poor binding but is not conclusive. In this assay the parent's reference entry averaged 0.65; its copy inside this library read 4.11 (one replicate of three). As a blank, each scFv also met three strains without target: over library AAYL49, 15% of these pairings were detected, typically at 4.06 and seldom below 2.83. Also given: how often the same scFv was detected with the empty control strains.

With PFTLNSYTIS | VIYSDGRRTFYGDSVK | GRAAGTDDS the result was 4.20 (2 of 3 replicates; controls 2 of 9).
With GFGLNSYGIS | VIYSDGRRTFYGDSVS | GRADGTFDS the result was 2.20 (3 of 3 replicates; controls 3 of 9).
With GFTLNSYGIS | VIYSDGRRTFYGDSVK | YRAAGTFDN the result was no signal (0 of 3 replicates; controls 0 of 9).
With GFTLNSYGIS | VIYSDGRRTTYGDSVK | FRAAVTFDS the result was 3.26 (1 of 3 replicates; controls 3 of 9).
With GFTLNSYGIS | VIYSDGRMTFYGDSVK | GRAAVTEDS the result was no signal (0 of 3 replicates; controls 1 of 9).
With GFTLNSYIIS | VIYSVGRRTFYGDSVK | GIAAGTFDS the result was 4.48 (1 of 3 replicates; controls 1 of 9).
With GFVLQSYGIS | VIYSYGRRTFYGDSVK | GRAAGTFDS the result was no signal (0 of 3 replicates; controls 0 of 9).
With GFTLNSYGIS | VIYSDWRRTFYGISLK | GRAAGTFDS the result was 4.74 (2 of 3 replicates; controls 6 of 9).
With GFTLNSYGIS | VIYSTGRRTFLGDSHK | GRAAGTFDS the result was no signal (0 of 3 replicates; controls 0 of 9).
With TFTLNSYGRS | VIYSDGRRTYYGDSVK | GRAAGTFDS the result was 4.02 (1 of 3 replicates; controls 0 of 9).
With GFTLCSYGIS | VIYSKGRRTFYGDSVK | GRAAGFFDS the result was 3.77 (1 of 3 replicates; controls 0 of 9).
With GLTLNSYGIS | VIYPDGRRTFYGDSVK | GRATGTFDS the result was no signal (0 of 3 replicates; controls 0 of 9).
With GFTLNSYGIS | VIYSAGRRTFYGDSVV | GRAAGTFDS the result was 3.69 (1 of 3 replicates; controls 0 of 9).
With GFHLNSYGIS | YIYSDGRRTFYGDSVK | GRAEGTFDS the result was no signal (0 of 3 replicates; controls 0 of 9).
With GFTLNSYGIH | VIYSDGRRTLYGDSVK | GRAAGTFMS the result was 4.37 (2 of 3 replicates; controls 5 of 9).
With GFVLNSYGIS | VIYNDGRDTFYGDSVK | GRAAGTFDS the result was 4.54 (1 of 3 replicates; controls 3 of 9).
With GFTLNGYGIS | VIYSDGRRTFYGDSVK | FRAAGTFDS the result was 5.00 (1 of 3 replicates; controls 4 of 9).
With GFTLNSYGIS | VIYYDGRRTNYGDSVK | GRAAGTADS the result was no signal (0 of 3 replicates; controls 0 of 9).
With GWTLNSYGIS | VQYSFGRRTFYGDSVK | GRAAGTFDS the result was no signal (0 of 3 replicates; controls 2 of 9).
With GFTLNLYGIS | VIYDDGRRTFYGDSVK | GRAAGTCDS the result was 4.30 (1 of 3 replicates; controls 4 of 9).
With GFTLNSYGIS | VNYSDGRRTFCGDSVK | GRAAGTCDS the result was no signal (0 of 3 replicates; controls 0 of 9).
With GFTLNSYQIS | VIYSDGRRTFYGDSVK | GFAAMTFDS the result was no signal (0 of 3 replicates; controls 0 of 9).
With GFTLNSYGIS | VIYSDGRRKFYGDSVK | IRAAGSFDS the result was no signal (0 of 3 replicates; controls 0 of 9).
With GYTLNSYGIS | VWYSDGRRTFYGDHVK | GRAAGTFDS the result was 3.73 (2 of 3 replicates; controls 3 of 9).
With GFTLNSYGIS | GRYSDGRRTFFGDSVK | GRAAGTFDS the result was 3.84 (2 of 3 replicates; controls 1 of 9).
With GFTLNSYGIS | VIYYRGRRTFYGDSVK | GRAAGTFDS the result was 3.86 (1 of 3 replicates; controls 0 of 9).
With GFTLNSYGIS | VIYSDGARTFYGDSVK | GPAAGTFMS the result was 2.11 (3 of 3 replicates; controls 2 of 9).
With GFTLNSYGIS | VIYSDGRRTFYGDCVK | CRAAGMFDS the result was 3.56 (3 of 3 replicates; controls 5 of 9).
With GFTLNSYGIS | VIYSDGRRTMYGDSVW | MRAAGTFDS the result was no signal (0 of 3 replicates; controls 2 of 9).
With GFTLNKYGIS | VIYSDGRRTGYGSSVK | GRAAGTFDS the result was 1.16 (3 of 3 replicates; controls 3 of 9).
With GFTLNSYGIS | VIYNDGRPKFYGDSVK | GRAAGTFDS the result was no signal (0 of 3 replicates; controls 0 of 9).
With GFTLNSYGIS | CRYSDGRRTFYGDSVK | GRAAGTFDS the result was no signal (0 of 3 replicates; controls 0 of 9).

Extract of 4 entries:

CDR-H1,CDR-H2,CDR-H3,"mean, log10 nM",seen in,empty controls
GFTLNSYGIS,VIYSDGRRKFYGDSVK,IRAAGSFDS,no signal,0/3,0/9
GFTLNLYGIS,VIYDDGRRTFYGDSVK,GRAAGTCDS,4.30,1/3,4/9
GFTLNKYGIS,VIYSDGRRTGYGSSVK,GRAAGTFDS,1.16,3/3,3/9
GFTLNSYGIS,VIYSDGRRTFYGDSVK,YRAAGTFDN,no signal,0/3,0/9

Source: Engelhart et al. 2022 (doi:10.1038/s41597-022-01779-4), MIT Lincoln Laboratory and A-Alpha Bio; data file from the FLAb repository.